Values of other authors, collected in article PMC4584289.

Biological target: STRA6 (Homo sapiens) (UniProt Q9BX79)

Kd: 59 nM
Substance: RBP (from UniProt P02753)
